# Earlier results in patent US20240199639A1, “PRETOMANID AMORPHOUS FORM” (THE GLOBAL ALLIANCE FOR TB DRUG DEVELOPMENT, INC., priority 2021, published 2024).
# System: drug-resistant clinical isolates
# Details: cited from earlier work
smiles,measurement,value
"O=[N+]([O-])c1cn2c(n1)OC[C@@H](OCc1ccc(OC(F)(F)F)cc1)C2 [PA-824, (6S)-2-nitro-6-{[4-(trifluoromethoxy)benzyl]oxy}-6,7-dihydro-5H-imidazo[2,1-b][1,3]oxazine]",activity in vitro against drug-resistant clinical isolates,activity in vitro against all tested drug-resistant clinical isolates
